Data on two molecules can be found in ChEMBL document CHEMBL1123273.

SMILES strings stand for the structures. This is a selection: effects in other tests are not listed, and their absence says nothing.

A short description of the data set: Partition coefficient (logP). To be noted: octanol/water.

On to `CCC(=O)N(c1ccccc1)C1(COC)CCN(CCc2cccs2)CC1`, for which the logP turned out to be 3.95.

`CCC(=O)N(c1ccccc1)C1(COC)CCN(CCn2nnn(CC)c2=O)CC1` registered a lipophilicity (logP) of 2.16.

One may read the logP as a log measure of how a compound divides between an organic and an aqueous phase. High values mean higher lipophilicity, low ones lower lipophilicity.
